Key:
Test in all cases: Kinase Profiling Assay
Assay type in all cases: biochemical
Conditions in all cases: 100 μM
ACK1(h) = ACK1(h) (Homo sapiens, UniProt Q07912)
BTK(h) = BTK(h) (Homo sapiens, UniProt Q06187)
CK1γ1(h) = CK1γ1(h) (Homo sapiens, UniProt Q9HCP0)
CK2α2(h) = CK2α2(h) (Homo sapiens, UniProt P19784)
CLK2(h) = CLK2(h) (Homo sapiens, UniProt P49760)
cKit(V560G)(h) = cKit(V560G)(h) (Homo sapiens, UniProt P10721, V560G)
c-RAF(h) = c-RAF(h) (Homo sapiens, UniProt P04049)
FAK(h) = FAK(h) (Homo sapiens, UniProt Q05397)
FGFR2(N549H)(h) = FGFR2(N549H)(h) (Homo sapiens, UniProt P21802, N549H)
FGFR3(h) = FGFR3(h) (Homo sapiens, UniProt P22607)
GRK5(h) = GRK5(h) (Homo sapiens, UniProt P34947)
IGF-1R(h) = IGF-1R(h) (Homo sapiens, UniProt P08069)
JAK3(h) = biological target: T1, JAK3(h) (Homo sapiens, UniProt P52333)
T1 sequence (P52333 1-1124): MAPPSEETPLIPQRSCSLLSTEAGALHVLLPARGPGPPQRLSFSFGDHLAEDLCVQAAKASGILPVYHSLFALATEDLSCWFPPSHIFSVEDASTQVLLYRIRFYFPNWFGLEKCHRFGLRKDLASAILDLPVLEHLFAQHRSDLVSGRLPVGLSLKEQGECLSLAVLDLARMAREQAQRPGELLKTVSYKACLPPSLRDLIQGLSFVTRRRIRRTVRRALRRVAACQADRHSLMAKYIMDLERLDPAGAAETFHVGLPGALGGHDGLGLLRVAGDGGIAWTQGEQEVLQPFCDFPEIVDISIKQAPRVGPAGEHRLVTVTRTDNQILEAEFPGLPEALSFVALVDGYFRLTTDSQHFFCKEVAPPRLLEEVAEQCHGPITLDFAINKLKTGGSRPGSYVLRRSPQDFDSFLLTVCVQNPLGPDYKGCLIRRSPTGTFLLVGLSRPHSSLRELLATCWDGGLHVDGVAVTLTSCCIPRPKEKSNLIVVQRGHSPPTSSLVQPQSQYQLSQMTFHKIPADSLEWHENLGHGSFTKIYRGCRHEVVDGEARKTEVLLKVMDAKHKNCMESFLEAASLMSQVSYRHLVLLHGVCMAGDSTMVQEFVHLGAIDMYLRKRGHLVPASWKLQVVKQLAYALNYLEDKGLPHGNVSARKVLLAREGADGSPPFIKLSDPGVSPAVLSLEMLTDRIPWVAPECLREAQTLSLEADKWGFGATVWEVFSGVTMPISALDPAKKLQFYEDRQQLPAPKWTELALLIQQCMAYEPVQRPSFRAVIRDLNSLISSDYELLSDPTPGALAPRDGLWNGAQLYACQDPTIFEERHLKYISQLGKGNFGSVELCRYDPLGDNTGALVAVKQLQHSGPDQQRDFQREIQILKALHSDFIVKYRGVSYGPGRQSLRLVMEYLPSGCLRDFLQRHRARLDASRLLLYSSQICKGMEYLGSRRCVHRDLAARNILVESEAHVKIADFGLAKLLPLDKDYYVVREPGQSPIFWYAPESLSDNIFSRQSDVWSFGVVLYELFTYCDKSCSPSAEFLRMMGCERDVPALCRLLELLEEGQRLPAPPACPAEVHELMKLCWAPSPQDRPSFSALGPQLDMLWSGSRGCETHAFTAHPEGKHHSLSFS

MAPK1(h) = MAPK1(h) (Homo sapiens, UniProt P27361)
Met(Y1248D)(h) = Met(Y1248D)(h) (Homo sapiens, UniProt P08581, Y1230D)
Met(Y1248H)(h) = Met(Y1248H)(h) (Homo sapiens, UniProt P08581, Y1230H)
MRCKα(h) = MRCKα(h) (Homo sapiens, UniProt Q5VT25)
PAK6(h) = PAK6(h) (Homo sapiens, UniProt Q9NQU5)
PAR-1Bα(h) = biological target: T2, PAR-1Bα(h) (Homo sapiens, UniProt Q7KZI7)
T2 sequence (Q7KZI7 1-725 isoform Q7KZI7-4): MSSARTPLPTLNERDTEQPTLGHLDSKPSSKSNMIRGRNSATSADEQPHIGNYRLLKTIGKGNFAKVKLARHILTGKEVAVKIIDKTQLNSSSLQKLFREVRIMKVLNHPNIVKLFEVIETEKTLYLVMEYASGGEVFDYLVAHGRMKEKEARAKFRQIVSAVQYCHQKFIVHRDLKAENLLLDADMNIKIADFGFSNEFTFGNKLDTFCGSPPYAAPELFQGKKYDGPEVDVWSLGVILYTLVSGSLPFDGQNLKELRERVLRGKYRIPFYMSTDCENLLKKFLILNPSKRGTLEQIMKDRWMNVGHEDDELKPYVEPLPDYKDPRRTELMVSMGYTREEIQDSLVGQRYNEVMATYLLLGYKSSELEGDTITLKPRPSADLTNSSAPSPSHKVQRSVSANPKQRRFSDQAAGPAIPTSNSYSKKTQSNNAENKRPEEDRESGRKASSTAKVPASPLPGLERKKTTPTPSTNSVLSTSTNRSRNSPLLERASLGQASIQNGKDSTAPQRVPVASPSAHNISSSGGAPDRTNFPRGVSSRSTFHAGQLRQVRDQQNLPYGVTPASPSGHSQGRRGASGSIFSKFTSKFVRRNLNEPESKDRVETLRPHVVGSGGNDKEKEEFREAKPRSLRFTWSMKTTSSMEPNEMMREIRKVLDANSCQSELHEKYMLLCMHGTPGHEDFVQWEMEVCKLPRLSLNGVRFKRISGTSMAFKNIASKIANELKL

PDGFRα(D842V)(h) = PDGFRα(D842V)(h) (Homo sapiens, UniProt P16234, D842V)
PKA(h) = PKA(h) (Homo sapiens, UniProt P17612)
PKCη(h) = PKCη(h) (Homo sapiens, UniProt P24723)
Plk1(h) = Plk1(h) (Homo sapiens, UniProt P53350)
Snk(h) = Snk(h) (Homo sapiens, UniProt Q9NYY3)
Tie2(R849W)(h) = Tie2(R849W)(h) (Homo sapiens, UniProt Q02763, R849W)
TLK2(h) = TLK2(h) (Homo sapiens, UniProt Q86UE8)

## FAKLAARLYRKALARQLGVAA [MMI-0300]
ACK1(h)
  % activity: 104%
BTK(h)
  % activity: 102%
CK1γ1(h)
  % activity: 111%
CK2α2(h)
  % activity: 105%
CLK2(h)
  % activity: 103%
cKit(V560G)(h)
  % activity: 102%
c-RAF(h)
  % activity: 107%
FAK(h)
  % activity: 111%
FGFR2(N549H)(h)
  % activity: 116%
FGFR3(h)
  % activity: 102%
GRK5(h)
  % activity: 136%
IGF-1R(h)
  % activity: 119%
JAK3(h)
  % activity: 121%
MAPK1(h)
  % activity: 107%
Met(Y1248D)(h)
  % activity: 102%
Met(Y1248H)(h)
  % activity: 117%
MRCKα(h)
  % activity: 104%
PAK6(h)
  % activity: 104%
PAR-1Bα(h)
  % activity: 113%
PDGFRα(D842V)(h)
  % activity: 114%
PKA(h)
  % activity: 119%
PKCη(h)
  % activity: 103%
Plk1(h)
  % activity: 115%
Snk(h)
  % activity: 114%
Tie2(R849W)(h)
  % activity: 117%
TLK2(h)
  % activity: 114%
